This series can be described thus: clinical. As to conditions: human, plasma, im, 1 mg, Vz/F, Treatment B: IM 1.0 mg nalmefene hydrochloride, Median, n=68.

As to `C=C1CC[C@@]2(O)[C@H]3Cc4ccc(O)c5c4[C@@]2(CCN3CC2CC2)[C@H]1O5` [Nalmefene, 17-cyclopropylmethyl-4,5α-epoxy-6-methylenemorphinan-3,14-diol], the Vd/F was found to be 865 L.

The values above are taken from patent publication US12290596B2, “Compositions and methods for the treatment of opioid overdose” (priority 2021, dated 2025).
